Earlier results on one molecule are cited in patent US8440813B2, “Antiviral nucleoside analogs” (BioCryst Pharmaceuticals, Inc., priority 2007, dated 2013).

In the data set the test system is HCV. To be noted: human, in vivo; cited from earlier work.

Molecules are shown by their SMILES.

Take `NC(=O)c1ncn([C@@H]2O[C@H](CO)[C@@H](O)[C@H]2O)n1` [Ribavirin, 1-β-D-ribofuranosyl-1-1,2,4-triazole-3-carboxamide]: the toxicity entry is reported as “significant toxicity”.
